# Apparent affinities of Ab-14 variants for a coronavirus HR2 peptide

From the AlphaSeq antibody data of Engelhart et al. 2022 (doi:10.1038/s41597-022-01779-4), copy in the FLAb collection.

Target: peptide PDVDLGDISGINAS, taken from heptad repeat 2 (HR2) of SARS-CoV-2 spike.

Each scFv is VH, three GGGGS repeats, VL, as in the parent Ab-14, and differs from it in the CDRs of the light chain only.
VH: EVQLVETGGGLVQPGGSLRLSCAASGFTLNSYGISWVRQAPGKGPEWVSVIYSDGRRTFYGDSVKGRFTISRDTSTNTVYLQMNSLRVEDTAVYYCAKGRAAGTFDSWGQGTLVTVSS
VL: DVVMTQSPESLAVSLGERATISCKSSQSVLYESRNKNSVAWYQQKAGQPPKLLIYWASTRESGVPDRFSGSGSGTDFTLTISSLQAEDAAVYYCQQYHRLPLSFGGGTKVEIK

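Phage display of a naive human antibody library on the peptide gave the parent. Library AAYL50 holds single substitutions and randomly drawn double and triple substitutions in the CDRs. In AlphaSeq, yeast of one mating type display the scFv and yeast of the other type display the target. Mating (16 h, 30 °C) was followed by selection of diploids and sequencing of their barcodes. Each replicate has its own calibration line, from reference interactions of the BCL2 family. Each pool was mated in three replicate cultures.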

Each variant is given by its three light chain CDRs, as the data file delimits them; those of the parent are KSSQSVLYESRNKNSVA, WASTRES, QQYHRLPLS.
Every variant below is changed at Q95 of the VL (sequential numbering).
Values are log10 of the apparent Kd in nM; lower means stronger binding.
The mean shown is taken over the replicates in which the pair was detected.
"nd" means that the variant was in the library but no mating with the target was seen in that replicate; the authors take this as a sign of poor binding, and no number exists.

With KRSQSVLYESRNKNSVA / TASTRES / NQYHRLPLS the result was nd, nd, nd. Variant KSSQSVLYEDRGKNSVA / WASTRES / GQYHRLPLS gave 2.12, 2.34, 2.37 (mean 2.28). With KSVQSVLYESRNKNSVA / WASTRES / RQYHRLPLS the result was 6.47, 3.43, 4.92 (mean 4.94). Variant KSSQSVLYERRNKDSVA / WASTRES / NQYHRLPLS gave 2.25, 2.13, 2.26 (mean 2.21). With KSSQSVVYESRNKNSVA / WASTRES / CQYHRLPLI the result was 4.96, 4.91, nd (mean 4.94). Variant KSRHSVLYESRNKNSVA / WASTRES / RQYHRLPLS gave nd, nd, nd. Variant KSSQSVLYTSRNKNSVA / WASTRES / PQQHRLPLS showed 5.70, nd, nd. Variant KSSQSVGPESRNKNSVA / WASTRES / KQYHRLPLS gave nd, nd, nd.

Variant KSSQSGLYESRNCNSVA / WASTRES / RQYHRLPLS showed 5.16, nd, 6.25 (mean 5.70). For KSSSSVLYASRNKNSVA / WASTRES / AQYHRLPLS, the assay gave 1.95, 2.12, 2.04 (mean 2.04). Variant KNSQSVLYESRNKNSVA / WASTRVS / GQYHRLPLS showed 2.96, 2.70, 2.58 (mean 2.75). Variant KSIQSVLYESRNKNSVA / WASTFES / KQYHRLPLS showed nd, nd, nd. Variant KNSQSVLYESRNKNSVA / WASTRES / CQYHRLDLS showed 1.79, 2.30, 1.82 (mean 1.97). Variant KSSSSVLYESRGKNSVA / WASTRES / PQYHRLPLS gave nd, nd, 3.26. Variant KSSQSVLYESRNKNSVA / SASTRES / AQYQRLPLS showed 0.83, 0.94, 1.31 (mean 1.03). With KSSQSVLYESRNKNSVA / WQSTRES / MQYHRLPLP the result was nd, nd, nd.

For YSSQSVLYESRNKNSVA / WGSTRES / RQYHRLPLS, the assay gave nd, nd, nd. Variant KSSLSVLPESRNKNSVA / WASTRES / SQYHRLPLS gave 2.36, 1.85, 2.15 (mean 2.12). With KSSQSVLYESRNKNSVA / WASTRES / VQYHRLPLI the result was nd, nd, nd. For KSGQSVLYEKRNKNSVA / WASTRES / CQYHRLPLS, the assay gave nd, nd, nd. With KSSQSVLYESRPKNSVQ / WASTRES / RQYHRLPLS the result was 6.61, 4.47, nd (mean 5.54). With KSSQSVLYYSRNKNSVA / WASTRES / PQYHRLPLS the result was nd, nd, 3.71. Variant KSSQSVLYESRNKNSVA / WASTRES / NQYHRMPLK gave nd, nd, nd. Variant KCSQSSLYESRNKNSVA / WASTRES / MQYHRLPLS showed 4.50, nd, nd.

Variant KSWQSVLYESANKNSVA / WASTRES / GQYHRLPLS showed nd, nd, nd. Variant KSSRSVLYESRNKNSVA / WASTRES / KQYHRLPLS gave 4.80, 4.16, nd (mean 4.48). Variant KSSQSVLQESRNKNSVA / WGSTRES / LQYHRLPLS gave 0.75, 0.79, 0.82 (mean 0.79). Variant KSSQSVLYESRNLNSVA / WASTRES / SQYHRLPLP gave nd, 2.89, nd. For KSSQSVLYESRNKNSVA / WAKTRES / FQYHRLPLS, the assay gave 4.05, 3.30, 3.82 (mean 3.72). For KSSQSVLYESRNKNSVG / WASTRES / IQYHRLKLS, the assay gave nd, nd, nd. For KSSQSVLDESRNKNSVA / WASTRES / TQIHRLPLS, the assay gave 1.09, 1.22, 1.27 (mean 1.20). For KSSQSVLYESRNGNSVA / WASTRES / NQEHRLPLS, the assay gave 3.69, nd, nd.

With KSYQSVLYESRNKNNVA / WASTRES / HQYHRLPLS the result was nd, nd, nd. Variant KSSQSVLYESRNKNSVA / WGRTRES / NQYHRLPLS showed 3.08, nd, 3.00 (mean 3.04). Variant WSSQSVLYESRNKNSVA / WASYRES / KQYHRLPLS showed 5.13, nd, nd.

Excerpt, the final 5 entries:

CDR-L1	CDR-L2	CDR-L3	replicates, log10 nM	log10 Kd (nM), mean
KSSQSVLDESRNKNSVA	WASTRES	TQIHRLPLS	1.09, 1.22, 1.27	1.20
KSSQSVLYESRNGNSVA	WASTRES	NQEHRLPLS	3.69, nd, nd	3.69
KSYQSVLYESRNKNNVA	WASTRES	HQYHRLPLS	nd, nd, nd	nd
KSSQSVLYESRNKNSVA	WGRTRES	NQYHRLPLS	3.08, nd, 3.00	3.04
WSSQSVLYESRNKNSVA	WASYRES	KQYHRLPLS	5.13, nd, nd	5.13

Nonspecific signal, from three strains lacking the peptide, appeared in 18% of pairings of library AAYL50, centred on 4.19 (5% of these signals below 2.99); values are not corrected for it.